High-throughput results: PubChem, Broad Institute
Compounds with a hit are over-represented: about 1.3% of the library has one in this group of screens.
SR-BI uptake up = activators of SR-BI mediated DiI-HDL uptake, primary screen, ldlA[mSR-BI] CHO cells, DiI fluorescence | 3 h; 100 = double the neutral-control signal | activation, % at 12.5 µM | actives 0.096% (n = 320,000) | AID 504775, 2011;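 active means mean replicate activation of at least 60% and every replicate at or above 60%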;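 further: 0% = median plate neutral-control signal and 100% = twice that signal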
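Material: SR-BI-overexpressing, LDLR-lacking CHO cells | Dosing: Single compound concentration, delivered by pin transfer | Probe or stimulus: Labelled HDL, 10 µg/mL | Signal: Bottom-read cell fluorescence after medium removal, ex 550/em 595 nm | Schedule: 3 h, 37 °C | Evaluation: HDL uptake via cellular fluorescence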
SR-BI HDL uptake = inhibitors of SR-BI mediated HDL lipid uptake, primary screen, ldlA[mSR-BI] cells, fluorescence, single point | Scavenger receptor class B member 1 (Mus musculus), Q61009 | ldlA[mSR-BI] CHO cells, DiI-HDL uptake fluorescence, 3 h | inhibition, % at 12.5 µM | actives 0.96% (n = 320,000) | AID 488896, 2010;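 active means mean replicate inhibition of at least 70% and a set share of replicates each scoring 70 or more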;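 further: 0% = median of neutral control wells and 100% = median of positive control wells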
INS-1E GSIS act = GLuc luminescence reporter in INS-1E cells, primary screen for activators of glucose-dependent secretion of insulin; INS-1E GLuc reporter insulin secretion, 2-3 h; activation, % at 16.6 µM; actives 0.61% (n = 370,000); AID 743287, 2014;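 active means lowest replicate activation of at least 40%, so every replicate reaches that level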;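 further: 0% = median of neutral control wells and 100% = median of IBMX positive control wells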
UUG fidelity = yeast start codon fidelity modulation; AID 602363; activity score, % at 18.7 µM; S. cerevisiae UUG-firefly luciferase reporter, luminescence/redox ratio; 0.13% of 350,000 active;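 active means replicate mean at a twofold rise or more, about +100% in these data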;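 further: firefly luciferase made from a UUG start codon reports start codon fidelity; reporter light over untreated wells divided by growth signal over untreated wells; some hits fall short of that in this replicate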
An asterisk follows results filed as active; nt = no result given.

1. N/C(=N\OC(=O)COc1ccc(Cl)cc1Cl)c1cccnc1
2. CCOc1ccccc1N1CCN(C2=C(NS(=O)(=O)c3cccs3)C(=O)c3ccccc3C2=O)CC1
3. COc1ccc(CCN2C(=O)C3C(C2=O)C2C=CC3C23CC3)cc1OC (stereo unspecified)
4. COc1ccc(CCN2CC(=O)NC(=O)C2)cc1OC
5. Cc1ccc(C(=O)NNC(=O)c2ccc3ccccc3c2O)cc1
6. COc1cccc(OCC(=O)NNC(=O)c2ccc3ccccc3c2O)c1
7. COc1ccc(C(=O)NNC(=O)c2ccc3ccccc3c2O)cc1
8. O=C(NC1CCCCC1)c1ccc2ccccc2c1O
9. COc1ccccc1C(=O)NNC(=O)c1ccc2ccccc2c1O
10. Cc1cccc(NC(=O)NNC(=O)c2ccc3ccccc3c2O)c1

screen / no. | 1 | 2 | 3 | 4 | 5 | 6 | 7 | 8 | 9 | 10
SR-BI uptake up | -15.8 | -81.3 | 12.8 | nt | -111.1 | nt | -75.5 | nt | nt | -23.6
SR-BI HDL uptake | 15.8 | 81.3* | -12.8 | nt | 111.1* | 89.0* | 75.5* | nt | nt | 23.6
INS-1E GSIS act | 59.9* | nt | -7.5 | 54.5* | -12.3 | -9.1 | 3.2 | -23.9 | -3.4 | 8.3
UUG fidelity | 3.4 | -10.0 | -6.3 | -9.3 | -21.3 | -20.3 | -13.5 | -12.9 | -13.5 | -8.1

11. O=C(NNC(=O)c1ccc2ccccc2c1O)NC1CCCCC1
12. C[C@@H]1CN([C@@H](C)CO)C(=O)c2cc(C#Cc3ccncc3)cnc2O[C@H]1CN(C)CC1CCCC1
13. C[C@@H]1CN([C@H](C)CO)C(=O)c2cc(-c3cccc(C(=O)N(C)C)c3)cnc2O[C@H]1CN(C)S(=O)(=O)c1ccccc1
14. CCn1c(C)c(C)c2cc(C(=O)NCCN3CCCCCC3)ccc21
15. Cc1cc(C)cc(C(=O)Nc2ccc(N3CCCC3)cc2)c1
16. O=C(NNC(=O)c1cc2ccccc2o1)c1ccncc1
17. Cc1ccc(C(=O)Nc2ccc(N3CCN(C)CC3)cc2)cc1
18. O=C(NNC(=O)c1ccccc1O)c1cc2ccccc2o1
19. O=C(Nc1ccc(N2CCCC2)cc1)c1ccc(Br)cc1
20. CC(C)Oc1ccc(C(=O)Nc2ccc(N3CCCC3)cc2)cc1

screen / no. | 11 | 12 | 13 | 14 | 15 | 16 | 17 | 18 | 19 | 20
SR-BI uptake up | nt | nt | nt | -75.4 | -87.5 | 14.8 | -5.5 | -145.3 | -75.8 | -75.1
SR-BI HDL uptake | 90.0* | nt | nt | 75.4* | 87.5* | -14.8 | 5.5 | 145.3* | 75.8* | 75.2*
INS-1E GSIS act | -12.2 | 1.9 | 2.8 | -3.7 | -0.8 | -2.4 | 2.5 | -14.0 | nt | 6.2
UUG fidelity | -15.6 | -2.8 | 2.2 | 5.7 | nt | -11.8 | -16.8 | -2.0 | -29.4 | -11.8

21. Cc1ccc(C(=O)N2CCN(c3ccc(NC(=O)c4cc(C)cc(C)c4)cc3)CC2)cc1
22. CC(C)NC(=O)N1[C@H](CO)[C@@H](c2ccccc2)C12CN(C(=O)Cc1ccccc1)C2
23. C[C@H]1CN([C@@H](C)CO)S(=O)(=O)c2ccc(-c3cccnc3)cc2O[C@@H]1CN(C)C(=O)CN(C)C
24. Cc1cccc(NC(=S)NNC(=O)c2ccccc2Br)c1
25. COc1ccc(Br)cc1C(=O)Nc1ccc(N2CCN(S(C)(=O)=O)CC2)cc1
26. O=C(Nc1ccc(N2CCCC2)cc1)c1cccc(Cl)c1
27. COc1ccc(Br)cc1C(=O)Nc1ccc(N2CCCC2)cc1
28. COc1ccc(Br)cc1C(=O)Nc1cccc(C)c1
29. Cc1cccc(NC(=O)c2ccc(NC(=O)c3ccccc3Br)cc2)c1
30. O=C(NCc1ccc(F)cc1)[C@@H]1[C@@H](CO)[C@@H]2Cn3c(cccc3=O)[C@@H]2N1Cc1ccccn1

screen / no. | 21 | 22 | 23 | 24 | 25 | 26 | 27 | 28 | 29 | 30
SR-BI uptake up | -30.1 | nt | nt | 8.1 | nt | -86.1 | -78.2 | -75.4 | -71.9 | nt
SR-BI HDL uptake | 30.0 | nt | nt | -8.1 | nt | 86.1* | 78.2* | 75.4* | 71.9* | nt
INS-1E GSIS act | 2.3 | -11.8 | 22.2 | -5.5 | nt | 33.5 | 19.1 | 51.5* | nt | 4.5
UUG fidelity | -11.8 | nt | 18.5 | -34.5 | -28.8 | -42.7 | -11.7 | nt | -27.7 | nt

31. COc1cc(CN2CC3(CN(C(=O)c4ccc5c(c4)OCO5)C3)c3c(n(C)c4cc(OC)ccc34)[C@H]2CO)cc(OC)c1
32. CC(=O)N1CCN(c2ccc(NC(=O)c3cc4ccccc4o3)cc2)CC1
33. COc1cc(OC)cc(C(=O)Nc2cccc(N3CCCC3)c2)c1
34. O=C(Nc1ccc(N2CCCC2)cc1)c1cc2ccccc2o1
35. Cc1ccc(C(=O)Nc2ccc(N3CCN(C(=O)c4ccco4)CC3)cc2)c(Cl)c1
36. COc1cc(OC)cc(C(=O)Nc2cccc(C(C)=O)c2)c1
37. Cc1ccccc1C(=O)N1CCN(c2ccc(NC(=O)c3cccc(OC(C)C)c3)cc2)CC1
38. COc1cccc(-c2ccc([C@@H]3[C@@H](CO)N4C(=O)CN(C(=O)C5CCC5)C[C@@H]34)cc2)c1
39. O=C(C[C@H]1CC[C@@H](NC(=O)c2ccccc2)[C@H](CO)O1)NCCc1ccncc1
40. CC(C)[C@H]1C(=O)N[C@H](c2cccc(Cl)c2)CC=CC[C@H](C)Oc2ccccc2C(=O)N1C (mixture of isomers)

screen / no. | 31 | 32 | 33 | 34 | 35 | 36 | 37 | 38 | 39 | 40
SR-BI uptake up | nt | -19.0 | -87.0 | -71.6 | -84.6 | -49.1 | -73.8 | nt | nt | nt
SR-BI HDL uptake | nt | 19.0 | 87.0* | 71.6* | 84.6* | 49.1 | 73.8* | nt | nt | nt
INS-1E GSIS act | -1.6 | -9.1 | -2.1 | 0.2 | -4.1 | nt | -18.9 | 11.3 | 7.2 | -16.4
UUG fidelity | nt | -10.2 | -23.4 | -6.4 | -12.7 | -13.3 | -5.8 | nt | -4.6 | nt

41. O=C(NC(=S)Nc1ccc(NC(=O)c2cccs2)cc1)c1cc2ccccc2o1
42. COc1ccc(C(=O)N2CCN(c3ccc(NC(=O)c4ccco4)cc3)CC2)cc1
43. O=C(NC(=S)Nc1ccc(NC(=O)c2cccs2)cc1)c1ccco1
44. CC(C)Oc1ccc(C(=O)Nc2ccc(N3CCN(C(=O)c4ccco4)CC3)cc2)cc1
45. COc1ccccc1C(=O)Nc1cc2ccccc2oc1=O
46. Cc1ccc(C(=O)Nc2ccc(Br)c(C(F)(F)F)c2)cc1
47. COc1ccccc1C(=O)Nc1cc2cc(Br)ccc2oc1=O
48. CCCC(O)(CCC)C(=O)NN1CCCCC1
49. CC(C)CCC(O)(CCC(C)C)C(=O)NN1CCCCC1
50. CCCC(=O)N1CC2(CCN(C)CC2)c2c(n(C)c3cc(OC)ccc23)[C@@H]1CO

screen / no. | 41 | 42 | 43 | 44 | 45 | 46 | 47 | 48 | 49 | 50
SR-BI uptake up | -20.0 | -9.4 | -21.0 | -74.2 | 0.6 | -72.1 | -15.0 | 8.9 | -3.3 | nt
SR-BI HDL uptake | 20.0 | 9.4 | 21.0 | 74.2* | -0.6 | 72.1* | 99.8* | -8.9 | 3.3 | nt
INS-1E GSIS act | 74.1* | -4.7 | -2.9 | -7.0 | nt | nt | 3.7 | 10.4 | 49.3* | 1.9
UUG fidelity | nt | -12.0 | -19.0 | -5.9 | -4.3 | -18.0 | -11.3 | -14.5 | nt | nt

Arranged by SMILES length (falling): 3 of the compounds above
42. COc1ccc(C(=O)N2CCN(c3ccc(NC(=O)c4ccco4)cc3)CC2)cc1
41. O=C(NC(=S)Nc1ccc(NC(=O)c2cccs2)cc1)c1cc2ccccc2o1
49. CC(C)CCC(O)(CCC(C)C)C(=O)NN1CCCCC1

screen / no. | 42 | 41 | 49
SR-BI uptake up | -9.4 | -20.0 | -3.3
SR-BI HDL uptake | 9.4 | 20.0 | 3.3
INS-1E GSIS act | -4.7 | 74.1* | 49.3*
UUG fidelity | -12.0 | nt | nt

Other results follow:
51. Cc1noc(C)c1S(=O)(=O)Nc1ccc2c(c1)CC(=O)N([C@H](C)CO)C[C@@H](C)[C@@H](CN(C)Cc1ccc(-c3ccccc3)cc1)O2
52. Cc1ccc2c(c1)c(-c1ccccc1)nc1nncn12
53. Cc1cccc(-c2nc3ccccc3c3nncn23)c1
54. C/C=C/c1ccc2c(c1)O[C@H](CN(C)C(=O)NC(C)C)[C@H](C)CN([C@H](C)CO)S2(=O)=O
55. Cc1c(NC(=S)NC(=O)c2sc3ccccc3c2Cl)cccc1C(=O)O
56. COc1ccccc1CCNC(=O)C1CCN(c2nnc(C)c3c(C)n(-c4ccc(C)cc4)nc23)CC1
57. CCOc1ccccc1CNC(=O)C1CCN(c2nnc(C)c3c(C)n(-c4ccc(C)cc4)nc23)CC1
58. O=C(CC1CC1)N1[C@@H]2CN(S(=O)(=O)c3ccccc3)c3ccccc3[C@@H]2[C@@H]1CO

screen / no. | 51 | 52 | 53 | 54 | 55 | 56 | 57 | 58
SR-BI uptake up | nt | 14.3 | -40.5 | nt | -8.3 | -79.6 | -58.7 | nt
SR-BI HDL uptake | nt | -14.2 | 40.5 | nt | 8.3 | 79.6* | 58.7 | nt
INS-1E GSIS act | -14.8 | 46.4* | nt | 15.2 | 62.7* | -1.7 | 3.2 | -1.0
UUG fidelity | nt | -14.0 | nt | -2.2 | -22.6 | -3.7 | -14.2 | 20.1
